Apparent affinities of Ab-14 variants for a coronavirus HR2 peptide

Reference: Li et al. 2023, doi:10.1038/s41467-023-39022-2. File: FLAb, binding data.

Binding partner: SARS-CoV-2 spike HR2 peptide, sequence PDVDLGDISGINAS.

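The parent was found by panning a naive human phage display library on the peptide. These sequences belong to a second round, designed from the earlier measurements on random variants of the parent. Group labels follow the data file (Ctrl: baseline library sampled from a position-specific scoring matrix, with some repeated check sequences; GP: Gaussian process model; HC: hill climbing; Gen: genetic algorithm; a sequence that several methods proposed may carry one label only). In AlphaSeq, yeast of one mating type display the scFv and yeast of the other type display the target. Binding brings cells together so that they mate, and sequencing counts the barcode pairs among the diploids. Read counts were normalised to the haploid input and turned into Kd by a linear fit to BCL2-family pairs of known affinity, for each replicate. Each pool was mated in six replicate cultures.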

Ab-14 is the parent antibody, in scFv form: VH, then three GGGGS repeats, then VL. The heavy chain is unchanged in all variants.
VH: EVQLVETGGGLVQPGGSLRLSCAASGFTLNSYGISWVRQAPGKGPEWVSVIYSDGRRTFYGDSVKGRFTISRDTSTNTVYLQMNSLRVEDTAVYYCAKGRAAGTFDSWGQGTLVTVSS
VL: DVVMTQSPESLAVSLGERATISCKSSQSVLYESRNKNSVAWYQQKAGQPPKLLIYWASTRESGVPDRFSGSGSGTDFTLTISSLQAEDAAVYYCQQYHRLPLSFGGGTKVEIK

Changes read parent residue, position, new residue, counted from the first residue of the VL shown.
Variants here have at most six changes.
The Kd shown is the geometric mean over detected replicates; a lower Kd is a better binder.
Where no diploid with the target was found in any replicate, the entry reads "nd": below detection, most likely a poor binder, though not proof of it.
Three control strains display no target. For all light chain designs, 4% of the pairings with them gave a signal, with a median of 430 nM and one signal in twenty below 38 nM, so weak values seen in few replicates may be background.
A sequence measured in both rounds can read differently, since the two assays cover different ranges.
In the paper, a design with two or fewer of six values counts as a poor binder.
Where one sequence has several entries in the source, the replicates are pooled.
Of ten entries with the parent sequence, four were seen in most replicates (averages 2.2 nM to 240 nM), three in one and three in none, so single entries are noisy.

With S25L S38N W56M [GP_Gen] the result was 980 pM (6 of 6 replicates). Variant S25F S26Q V29E W56E T59Q [GP_Gen] showed 670 pM (6 of 6 replicates). With S25T S26P S28G N35M W56G T59V [GP_HC] the result was 1.3 nM (6 of 6 replicates). With S25L V29W W56N T59Q E61L [GP_Gen] the result was 560 pM (6 of 6 replicates). For S25V R34G N35T W56N T59Y [GP_HC], the assay gave 2.2 nM (6 of 6 replicates).

Variant S25L V29W W56Q T59Q [GP_Gen] gave 460 pM (6 of 6 replicates). Variant S25V V29H W56Q T59Q [GP_Gen] gave 4.6 nM (6 of 6 replicates). For Y31M E32D [Ctrl], the assay gave 22 nM (6 of 6 replicates). Variant S26R L30A R34E W56S [Ctrl] gave 4.7 nM (6 of 6 replicates). Variant S25L L30P W56S [GP_Gen] gave 760 pM (6 of 6 replicates).

With Q96S [Ctrl] the result was 420 nM (13 of 30 replicates). With S25L V29E W56G E61C [GP_Gen] the result was 1.9 nM (6 of 6 replicates). For S25L S26Y L30Q W56N [GP_Gen], the assay gave 8.9 nM (6 of 6 replicates). Variant S25T V29W L30N [Ctrl] gave 16 nM (6 of 6 replicates). Variant W56E S58D E61A Q96S [Ctrl] showed 5.4 nM (6 of 6 replicates).

For V29W E32Y [Ctrl], the assay gave nd (0 of 6 replicates). For S25I S26Q K36E W56S S103A [Ctrl], the assay gave 1.1 nM (6 of 6 replicates). For S25L V29M W56N T59Q S62K [GP_Gen], the assay gave 550 pM (6 of 6 replicates). With S25F V29T W56N T59Q [GP_Gen] the result was 2.1 nM (6 of 6 replicates). For S25Q S33Q W56D [GP_HC], the assay gave 590 pM (6 of 6 replicates).

With A40C W56N L102F [Ctrl] the result was 2.4 nM (6 of 6 replicates). Variant S33E W56D S62D [Ctrl] gave 2.4 nM (6 of 6 replicates). Variant S25L S26Q V29W W56N E61C [GP_Gen] showed 880 pM (6 of 6 replicates). Variant K24H S25L Q27E S28V W56N [GP_HC] gave 660 pM (6 of 6 replicates). With Y31P W56D E61M [GP_HC] the result was 740 pM (6 of 6 replicates).

For V29M Y31Q S38N S103Y [Ctrl], the assay gave 17 nM (1 of 6 replicates). Variant K24R Y31E N37D W56N Q96T [Ctrl] showed 1.6 nM (6 of 6 replicates). For S26D Q27D L30S E32T W56E Q95M [Ctrl], the assay gave 420 pM (6 of 6 replicates). With S25V V29E W56E S62D [GP_Gen] the result was 4.2 nM (6 of 6 replicates). With R34N K36V N37H L102T [Ctrl] the result was nd (0 of 6 replicates).

For reference, 2 entries of the list once more:

changes	group	apparent Kd	detected
Y31P W56D E61M	GP_HC	740 pM	6/6
S26D Q27D L30S E32T W56E Q95M	Ctrl	420 pM	6/6